pEC50, pKi: −log10 of the molar value.
Experiments:
[1] = target: Mu-type opioid receptor (Homo sapiens, UniProt P35372); experiment: Displacement of [125I]FK33824 from human cloned mu opioid receptor
[2] = target: Kappa-type opioid receptor (Homo sapiens, UniProt P41145); experiment: Displacement of [125I]D-pro10-dynorphin from human cloned kappa opioid receptor
[3] = target: T1, Delta-type opioid receptor (Homo sapiens, UniProt P41143); experiment: Agonist activity at human delta opioid receptor by [35S]GTPgammaS binding assay
[4] = target: T1, Delta-type opioid receptor; experiment: Displacement of [125I]-[D-Ala2]deltorphin 2 from human cloned delta opioid receptor
[5] = test system: Mus musculus; experiment: Antinociceptive activity against acetic acid-induced writhing response in CD1 mouse at 25 umol/kg, iv after 20 mins
[6] = test system: Mus musculus; experiment: Antinociceptive activity against acetic acid-induced writhing response in iv dosed CD1 mouse after 20 mins

Sequences of proteins named here, by UniProt entry; tags and fusion partners are left off.
UniProt P35372, whole entry: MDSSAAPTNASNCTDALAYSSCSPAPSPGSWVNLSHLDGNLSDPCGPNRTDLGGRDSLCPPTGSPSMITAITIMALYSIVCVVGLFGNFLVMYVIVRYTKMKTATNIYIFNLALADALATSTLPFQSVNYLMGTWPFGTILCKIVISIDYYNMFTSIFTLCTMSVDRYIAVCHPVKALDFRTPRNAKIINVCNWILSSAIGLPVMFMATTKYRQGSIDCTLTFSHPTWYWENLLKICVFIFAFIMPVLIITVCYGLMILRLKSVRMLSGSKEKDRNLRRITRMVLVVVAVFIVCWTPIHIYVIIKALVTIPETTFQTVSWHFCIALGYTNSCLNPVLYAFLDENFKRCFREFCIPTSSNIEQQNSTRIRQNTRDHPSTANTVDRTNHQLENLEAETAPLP
UniProt P41145, whole entry: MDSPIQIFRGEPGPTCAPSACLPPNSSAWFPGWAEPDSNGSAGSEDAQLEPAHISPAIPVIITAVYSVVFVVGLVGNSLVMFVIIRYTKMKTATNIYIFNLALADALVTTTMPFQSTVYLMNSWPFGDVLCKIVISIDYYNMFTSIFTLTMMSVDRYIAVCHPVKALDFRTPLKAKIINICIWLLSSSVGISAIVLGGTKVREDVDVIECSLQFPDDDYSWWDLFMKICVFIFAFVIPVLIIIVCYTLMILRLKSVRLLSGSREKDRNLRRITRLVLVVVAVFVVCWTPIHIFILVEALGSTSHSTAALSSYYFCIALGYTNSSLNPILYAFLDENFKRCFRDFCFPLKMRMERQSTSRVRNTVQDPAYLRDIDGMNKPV
UniProt P41143, whole entry: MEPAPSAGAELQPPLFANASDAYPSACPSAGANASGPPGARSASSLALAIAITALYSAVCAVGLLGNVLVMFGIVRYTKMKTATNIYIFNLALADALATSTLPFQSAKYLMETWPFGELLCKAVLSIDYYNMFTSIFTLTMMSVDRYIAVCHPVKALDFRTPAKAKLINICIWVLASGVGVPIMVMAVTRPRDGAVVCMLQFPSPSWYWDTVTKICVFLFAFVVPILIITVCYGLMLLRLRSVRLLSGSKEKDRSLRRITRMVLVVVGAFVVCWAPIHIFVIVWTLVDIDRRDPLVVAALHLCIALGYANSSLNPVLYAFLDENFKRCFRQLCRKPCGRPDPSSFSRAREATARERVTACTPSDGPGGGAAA

SMILES | pKi [1] | pKi [2] | pEC50 [3] | pKi [4] | Activity [5] [%] | ED50 [6] [µmol/kg]
CCN(CC)C(=O)c1ccc(N(c2cccc(O)c2)C2CCN(CCc3ccc(C)cc3)CC2)cc1 | 7.21 | 6.14 | 8.94 | 9.19 | – | –
CCN(CC)C(=O)c1ccc(N(c2cccc(O)c2)C2CCN(CCc3ccccc3)CC2)cc1 | 7.06 | 6.13 | 9.25 | 9.38 | 57 | 21.5
CCN(CC)C(=O)c1ccc(N(c2cccc(OC)c2)C2CCN(CCc3ccsc3)CC2)cc1 | 5.80 | 5.59 | – | 7.74 | – | –
CCN(CC)C(=O)c1ccc(N(c2cccc(O)c2)C2CCN(C)CC2)cc1 | 7.06 | 6.05 | 7.59 | 9.00 | – | –
